# Reference: PubChem BioAssay AID602277 (University of Pittsburgh Molecular Library Screening Center, 2012)
# The entries are a selection whose mix differs from that of the whole data set. Activity calls are given as the source filed them.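 How the source made its calls: active means inhibition of the reporter signal at or above 50%; inactive means inhibition below 50%.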
# Test: TLR3 IRF3 reporter activation blockers – cell-based, poly I:C stimulus, luciferase, 10K MLSCN set, primary screen (AID 602277)
# Details: HEK293-TLR3 RL24 IRF3 luciferase reporter, at 10 µM, active compounds read high
row,SMILES,inhibition
1,CP(=S)(Nn1cnnc1)Oc1ccccc1 (stereo not given),inactive: 15.7%
2,Cc1ccc(C)c(NP(C)(=O)Oc2ccccc2)c1 (stereo not given),inactive: 29.7%
3,CN(C)CCOC(=O)C(O)(c1ccccc1)C1CCCCC1 (stereo not given),inactive: 10.8%
4,CP(=O)(Nc1ccc2c(c1)OCCO2)Oc1ccccc1 (stereo not given),inactive: 11.2%
5,CP(=O)(Nc1ccccn1)Oc1ccccc1 (stereo not given),inactive: 19.9%
